Results taken from patent US20240131180A1, “DRUG ANTIBODY CONJUGATES” (PHARMA MAR, S.A., priority 2020, published 2024).

Experiments:
SK-BR-3 = test: SRB cytotoxicity assay, SK-BR-3 (HER2+); type: cell-based, human; conditions: HER2 positive; 72 hours; geometric mean of three independent experiments
Text: (§1) Sulforhodamine B colorimetric assay for cytotoxicity screening. Nature Protocols, 2006, 1, 1112-1116.
(§2) Cell survival was expressed as percentage of control, untreated cell survival.

HCC-1954 = test: SRB cytotoxicity assay, HCC-1954 (HER2+); type: cell-based, human; conditions: HER2 positive; 72 hours; geometric mean of three independent experiments
MDA-MB-231 = test: SRB cytotoxicity assay, MDA-MB-231 (HER2-); type: cell-based, human; conditions: HER2 negative; 72 hours; geometric mean of three independent experiments
Text: as §1, §2

MCF-7 = test: SRB cytotoxicity assay, MCF-7 (HER2-); type: cell-based, human; conditions: HER2 negative; 72 hours; geometric mean of three independent experiments
Text: as §1, §2

[1] = tested on: SK-BR-3, HCC-1954, MDA-MB-231 and MCF-7 cells; type: cell-based; conditions: 50 to 0.01 g/mL as printed; any cell line, independently of HER2 status
Text: as §1, §2

Substance: Trastuzumab: monoclonal antibody that interferes with the HER2/neu receptor; purchased from Roche
- IC50 (SK-BR-3): > 340 nM
- IC50 SK-BR-3 (SK-BR-3): >50 µg/mL
- IC50 (HCC-1954): > 340 nM
- IC50 HCC-1954 (HCC-1954): >50 µg/mL
- IC50 (MDA-MB-231): > 340 nM
- IC50 MDA-MB-231 (MDA-MB-231): >50 µg/mL
- IC50 (MCF-7): > 340 nM
- IC50 MCF-7 (MCF-7): >50 µg/mL
- in vitro cytotoxicity [1]: completely inactive
